Assay results from US20080075696A1, “Treatment Of Hepatitis C In The Asian Population With Interferon-Beta” (priority 2004, published 2008).
Read-outs that look alike come from different tables or passages of the source.

Key:
[1] = system: Vesicular Stomatitis virus; format: cell-based
[2] = human, in vivo
[3] = system: alanine aminotransferase (ALT); experiment: Phase III trial in Asian patients with chronic hepatitis C: ALT normalisation
[4] = system: hepatitis C virus (HCV); experiment: Phase III randomized placebo-controlled trial in Asian patients with chronic hepatitis C: HCV RNA response (viral clearance, EVR, SVR)
[5] = system: HCV; conditions: cited from earlier work
[6] = system: ALT; conditions: acute HCV infection (Omata 1991); controls one of 14; cited from earlier work
[7] = 44 mcg sc tiw, 12 weeks, Asian IFN-alpha-naïve chronic hepatitis C patients
[8] = All subjects, Full Analysis Set
[9] = Baseline HCV RNA: High viral load, Full Analysis Set
[10] = Baseline HCV RNA: Low viral load, Full Analysis Set
[11] = Genotype 2 or 3, Full Analysis Set
[12] = Per Protocol Set (109 subjects)

For “IFN-beta-1a: Rebif, recombinant human interferon beta-1a, purified 166 amino acid glycoprotein produced in Chinese Hamster Ovary cells”, the “antiviral activity contained in Rebif 44 mcg” value ([1]; 44 mcg, same bioassay) was “approximately 12 MIU”, the “specific activity (antiviral activity)” value ([1]; reference standard calibrated against WHO natural interferon beta standard, WISH cells, Vesicular Stomatitis virus) was “approximately 270 million international units (M” and the “Number of subjects with at least one adverse event” value [2] was 123 (96.1%) subjects (%). For the same substance, the “Number of subjects with at least one adverse event considered probably or possibly related to study medication” value [2] was 123 (96.1%) subjects (%), the “Number of subjects with at least one adverse event leading to discontinuation of study medication” value [2] was 3 (2.3%) subjects (%) and the “Number of subjects with at least one serious adverse event” value [2] was 0 subjects. For the same substance, the “mean values for haemoglobin, WBC and neutrophils (absolute)” value [2] was “remained within the normal reference range at all times”, the “rate of ALT normalization by week 12” value [3, 7] was 65.1% and the “ALT normalisation at Week 12 achieved: No” value ([3]; 44 mcg sc tiw, N = 128) was 44 (34.9%) subjects (%). The “ALT normalisation at Week 12 achieved: Yes” value ([3]; 44 mcg sc tiw, N = 128) was 82 (65.1%) subjects (%), the “Odds ratio for ALT normalisation, IFN-beta-1a vs placebo” value ([3]; Week 12) was 20.24 and the “rate of EVR by week 12” value [4, 7] was 92.2%. For the same substance, the “rate of complete viral clearance by week 12” value [4, 7] was 74.2%, the “percentage of subjects with SVR at Week 48” value (“percentage of subjects” for short) [4, 8] was “(26.6%)” and the “subjects with SVR at Week 48 (subjects with SVR/subjects)” value (shortened to “subjects … (subjects with SVR/subjects)”) [4, 8] was 34/128. For the same substance, the “percentage of subjects” value [4, 9] was “(12.9%)”, the “subjects … (subjects with SVR/subjects)” value [4, 9] was 11/85 and the “percentage of subjects” value [4, 10] was “(53.5%)”. The “subjects … (subjects with SVR/subjects)” value [4, 10] was 23/43, the “SVR at Week 48 achieved: No” value ([4]; Full Analysis Set (128 subjects)) was 94 (73.4%) subjects (%) and the “SVR at Week 48 achieved: Yes” value ([4]; Full Analysis Set (128 subjects), 24 weeks treatment, 24 weeks observation) was 34 (26.6%) subjects (%). For the same substance, the “proportion of subjects with SVR” value ([4]; Full Analysis Set, absence of detectable HCV RNA in serum at Week 24 and Week 48) was 26.6%, the “SVR at Week 48 achieved: No (Table 9)” value ([4]; Full Analysis Set, monotherapy 128 patients, combination with ribavirin 127 patients) was 94 (73.4%) patients (%) and the “SVR at Week 48 achieved: Yes (Table 9)” value ([4]; Full Analysis Set, monotherapy 128 patients, combination with ribavirin 127 patients, 24 weeks treatment, 24 weeks observation, draft statistical report) was 34 (26.6%) patients (%). The “percentage of subjects” value ([4]; Genotype 1, Full Analysis Set) was “(22.4%)”, the “subjects … (subjects with SVR/subjects)” value ([4]; Genotype 1, Full Analysis Set) was 19/85 and the “percentage of subjects” value [4, 11] was “(39.4%)”. For the same substance, the “subjects … (subjects with SVR/subjects)” value [4, 11] was 13/33, the “percentage of subjects” value ([4]; Genotype 4, Full Analysis Set) was “(100.0%)” and the “subjects … (subjects with SVR/subjects)” value ([4]; Genotype 4, Full Analysis Set) was 1/1. For the same substance, the “percentage of subjects” value ([4]; Genotype 6, Full Analysis Set) was “(12.5%)”, the “subjects … (subjects with SVR/subjects)” value ([4]; Genotype 6, Full Analysis Set) was 1/8 and the “subjects … (subjects with SVR/subjects)” value ([4]; Genotype - other, Full Analysis Set) was 0/1. For the same substance, the “Complete viral clearance or ≧2 log decrease in HCV RNA (%)” value ([4]; HCV Genotype 1, week 12) was “(89.3%)”, the “Complete viral clearance or ≧2 log decrease in HCV RNA (%)” value ([4]; HCV Genotype 2, week 12) was “(100.0%)” and the “Complete viral clearance or ≧2 log decrease in HCV RNA (%)” value ([4]; HCV Genotype 3, week 12) was “(88.9%)”. For the same substance, the “Complete viral clearance or ≧2 log decrease in HCV RNA (%)” value ([4]; HCV Genotype 4, week 12) was “(100.0%)”, the “Complete viral clearance or ≧2 log decrease in HCV RNA (%)” value ([4]; HCV Genotype 6, week 12) was “(100.0%)” and the “Complete viral clearance or ≧2 log decrease in HCV RNA (%)” value ([4]; Others (genotype), week 12) was “(100.0%)”. For the same substance, the “SVR at Week 48 achieved: No” value [4, 12] was 81 (74.3%) subjects (%), the “SVR at Week 48 achieved: Yes” value [4, 12] was 28 (25.7%) subjects (%) and the “Odds ratio for EVR, IFN-beta-1a vs placebo” value ([4]; Week 12) was 608.09.
For “IFN-beta: human fibroblast interferon, native or recombinant, as used in cited literature studies”, the clinical efficacy ([5]; intramuscular, 3 MU three times per week, HCV patients of non-Asian race (Perez 1995)) is listed as “Very poor clinical efficacy”, the clinical efficacy ([5]; subcutaneous, 9 or 12 MU, non-Asian (Caucasian) HCV patients (Habersetzer 2000)) is listed as “has shown efficacy at least in a group of patients” and the “patients achieving sustained normalization of ALT at one year” value [6] is listed as 7 of 11. For the same substance, the “mean values for platelets” value [2] was “fell below the normal reference range reaching its lowest value at Week 4 before climbing back within a normal range by Week 20 of treatment”.
